In ChEMBL document CHEMBL1152459, “Drugs designed to inhibit human p38 mitogen-activated protein kinase activation treat Toxoplasma gondii and Encephalitozoon cuniculi infection” (Antimicrob Agents Chemother, 2007):
pIC50: −log10 of the molar value.

Molecular target: T1, Mitogen-activated protein kinase 1 (Toxoplasma gondii, UniProt Q5SC61)
T1 sequence (Q5SC61 whole entry): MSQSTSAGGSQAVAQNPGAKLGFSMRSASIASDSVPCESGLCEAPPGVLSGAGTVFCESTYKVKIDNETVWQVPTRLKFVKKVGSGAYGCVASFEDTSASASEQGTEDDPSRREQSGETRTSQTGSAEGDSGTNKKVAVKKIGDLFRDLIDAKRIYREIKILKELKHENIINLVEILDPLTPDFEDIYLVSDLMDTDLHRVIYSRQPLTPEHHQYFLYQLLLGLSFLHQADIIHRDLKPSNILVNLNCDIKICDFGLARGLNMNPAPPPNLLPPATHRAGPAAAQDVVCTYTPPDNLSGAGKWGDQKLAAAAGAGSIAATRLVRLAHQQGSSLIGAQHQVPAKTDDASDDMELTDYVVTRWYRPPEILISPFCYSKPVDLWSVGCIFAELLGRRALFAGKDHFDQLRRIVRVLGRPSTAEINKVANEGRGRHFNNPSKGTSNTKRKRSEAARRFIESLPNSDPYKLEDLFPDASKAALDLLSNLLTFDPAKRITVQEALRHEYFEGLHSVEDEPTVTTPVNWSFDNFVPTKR
Assay: Inhibition of Toxoplasma gondii recombinant MAPK1 expressed in Escherichia coli
Format: cell-free

C[S+]([O-])c1ccc(-c2nc(-c3ccncc3)c(-c3ccc(F)cc3)[nH]2)cc1 (stereo unspecified) [SB-203580]
pIC50: 7.00
